# Yeast mating assay 1: variants of the scFv Ab-14

All variants were tested on one target, the spike HR2 peptide PDVDLGDISGINAS (SARS-CoV-2).

Each scFv is VH, a (GGGGS)3 linker, VL, as in the parent Ab-14, and differs from it in the CDRs of the heavy chain only.
VH: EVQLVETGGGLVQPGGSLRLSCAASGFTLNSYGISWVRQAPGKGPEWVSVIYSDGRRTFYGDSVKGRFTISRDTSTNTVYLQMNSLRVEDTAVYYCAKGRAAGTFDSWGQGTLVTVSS
VL: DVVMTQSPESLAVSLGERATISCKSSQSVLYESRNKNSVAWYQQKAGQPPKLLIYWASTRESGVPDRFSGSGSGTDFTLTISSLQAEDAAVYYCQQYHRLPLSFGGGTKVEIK

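Phage display of a naive human antibody library on the peptide gave the parent. Variants in AAYL49 differ from the parent at up to three CDR positions; double and triple changes were sampled at random. The scFvs were displayed on barcoded MATa yeast, the peptide on MATalpha yeast. Binding brings cells together so that they mate, and sequencing counts the barcode pairs among the diploids. Read counts were normalised to the haploid input and turned into Kd by a linear fit to BCL2-family pairs of known affinity, for each replicate. Each pool was mated in three replicate cultures.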

Variants are written as CDR1, CDR2 and CDR3 of the heavy chain (limits as in the source). Parent: GFTLNSYGIS, VIYSDGRRTFYGDSVK, GRAAGTFDS.
This list gathers variants with a substitution at D106 (VH, numbered from residue 1).
Numbers give log10(Kd / nM), so 0 is 1 nM and 3 is 1 µM. Smaller is tighter.
An entry "nd" has no value in the source: the pair was not observed among the diploids in that replicate. This suggests poor binding but is not conclusive.
In this assay the parent's reference entry averaged 0.65; its copy inside this library read 4.11 (one replicate of three).
As a blank, each scFv also met three strains without target: over library AAYL49, 15% of these pairings were detected, typically at 4.06 and seldom below 2.83.

The variant GFTLNSYGIS / VIYSDGRRTFYSDSVM / GRAAGTFSS showed 0.92, 1.03, 0.95.
The variant WFTDNSYGIS / VIYSDGRRTFYGDSVK / GRAAGTFRS showed 4.07, 4.15, nd.
The variant GWTLRSYGIS / VIYSDGRRTFYGDSVK / GRAAGTFCS showed nd, 3.65, nd.
The variant GFTLNSYGIS / VIYSYGFRTFYGDSVK / GRAAGTFIS showed nd, nd, 3.44.
The variant GFTLNSYGIS / VIYSDGRRTFYGMSVK / GRAAGTEAS showed nd, nd, nd.
The variant GFTLNSYKIS / VMYSDGRRTFYGDSVK / GRAAGTFES showed nd, nd, nd.
The variant GFQLNSYGIS / VIYSDGRRHFYGDSVK / GRAAGTFRS showed nd, nd, nd.
The variant GFTLNSYGIS / VIYSDGRRTFYGDSVK / GRAAGTFPS showed 1.14, 1.27, 1.45.
The variant GDTLNDYGIS / VIYSDGRRTFYGDSVK / GRAAGTFSS showed 3.06, 4.91, 3.20.
The variant GFTLNSYGIS / VIYSDGRRTFYGMSVK / GRAAGTFGS showed nd, nd, nd.
The variant GFTLNSYGVS / VIISDGRRTFYGDSVK / GRAAGTFNS showed nd, nd, nd.
The variant GFTLNLYGIS / VVYSDGRRTFYGDSVK / GRAAGTFNS showed nd, nd, nd.
The variant GFTLNSYPIS / VIYSDGRRTFYVDSVK / GRAAGTFHS showed nd, nd, nd.
The variant CFTLNSYGIS / VIYSDGRRTFYGDSVK / GRWAGTFAS showed nd, 3.42, 3.06.
The variant GFTLNSYGIS / VIYSDGRRTFYGDSVK / GRAEGTFQS showed nd, nd, nd.
The variant GFTLSSYGIS / VIYSDGRRTFYGDSVK / GRAAGTFYQ showed 2.67, nd, nd.
The variant GFTHNKYGIS / VIYSDGRRTFYGDSVK / GRAAGTFMS showed nd, nd, 3.51.
The variant GFTLNSYGIS / VIYSVGRRTFYGDSVK / GRAAGTFSS showed 3.80, nd, nd.
The variant GFTLNSYGIS / VIYSDGRWTFYGDSVK / GRAAGTFKN showed nd, nd, nd.
The variant GFTLNSYLIS / VIYSDGRRTFYGDSVK / FRAAGTFIS showed nd, nd, nd.
The variant GFTLNSYGIS / VIYSDGRRTFYGDSVK / GEAAGTLLS showed nd, nd, nd.
The variant GFTLSSYGIS / VIYSDGRRTFYGDSVK / GRAQGTFMS showed 0.88, 1.16, 0.98.
The variant GFTLNSYGIS / VIYSDGRRYFYSDSVK / GRAAGTFTS showed nd, nd, nd.
The variant GFTLNSYGIS / VIYSDGRRTFYTDSVK / GRWAGTFVS showed nd, nd, nd.
The variant AFTLNSYGIS / VIYSDGRRTFYGDSSK / GRAAGTFQS showed nd, nd, nd.
The variant GFTLNSYGIS / VIYSDGRRTFYGDSVK / GQAAGTFAS showed 1.74, 1.71, 2.02.
The variant GFTLNSYWIS / VIYSDGRRTHYGDSVK / GRAAGTFNS showed nd, nd, nd.
The variant LFTLNSYGIS / VIYSDGRRTFYGDSVK / GRHAGTFNS showed 2.11, 2.38, 2.88.
The variant GFTLNSYGIS / VIYSDGRRTFYGDSVK / GPAAGTFTC showed 1.14, 1.31, 1.63.
The variant GFTLNSYGDS / VIYSDGRRTFYGDSVK / GRAAGTFCS showed nd, nd, nd.
The variant GFTLNSYGIS / VIYEDGRRTFSGDSVK / GRAAGTFAS showed nd, 3.33, 4.55.
The variant GFTLDSYGIS / VIYSDGRRTFYGDSVK / GRAAGTFRS showed 0.87, 1.02, 0.95.
The variant GFTLNSYGIS / VIYSDGWRTFYGDEVK / GRAAGTFIS showed 2.02, 2.05, 2.34.
The variant GFTLNSYGIS / VGYSDGRRTFYGDSVK / GRAAGTDGS showed nd, nd, 4.60.
The variant GFTLNSYGIS / VIYSDGRITFYGDSVK / GRAAGTFIS showed nd, nd, nd.
The variant GFTLNSYGIS / VIYSDGRRTFYGDSVK / GAAAGTHYS showed nd, nd, nd.
The variant GFTLNLYGIS / VIYSGGRRTFYGDSVK / GRAAGTFCS showed nd, nd, 4.85.
The variant CFTLNSYGIS / VIYPDGRRTFYGDSVK / GRAAGTFSS showed nd, 5.69, 4.73.
The variant GFTLNSYGIF / VIYSDQRRTFYGDSVK / GRAAGTFRS showed nd, nd, nd.
The variant GFTLNSYGIS / VWYSDGRRVFYGDSVK / GRAAGTFWS showed nd, nd, nd.
The variant GFTLNSYGIH / VIYSDGRNTFYGDSVK / GRAAGTFHS showed nd, nd, nd.
The variant GFTLNSAGIS / VIYSDGRRTFYGDSVK / GRAAGTFQM showed nd, 3.84, nd.
The variant GFTLNSEGIS / VIYSDGRRTFYGDSQK / GRAAGTFLS showed 4.26, 4.16, 4.23.
The variant GFTLNSHGIS / VIYSDGRRTFYGDSVM / GRAAGTFYS showed nd, nd, nd.
The variant GFTLNSYGIS / SIYSDGRRTFYGDSFK / GRAAGTFES showed nd, nd, nd.
The variant GFTLNRYGIS / VIYSDGRRTFYPDSVK / GRAAGTFHS showed nd, nd, nd.

Top 4 of the variants detected in all replicates, tightest first:

GFTLDSYGIS / VIYSDGRRTFYGDSVK / GRAAGTFRS: 0.87, 1.02, 0.95.
GFTLNSYGIS / VIYSDGRRTFYSDSVM / GRAAGTFSS: 0.92, 1.03, 0.95.
GFTLSSYGIS / VIYSDGRRTFYGDSVK / GRAQGTFMS: 0.88, 1.16, 0.98.
GFTLNSYGIS / VIYSDGRRTFYGDSVK / GRAAGTFPS: 1.14, 1.27, 1.45.

Reference: Engelhart et al. 2022, doi:10.1038/s41597-022-01779-4. File: FLAb, binding data.